Biological target: Histone deacetylase 2 (Homo sapiens, UniProt Q92769)
Assay: Inhibition of C-terminal FLAG-tagged human full length recombinant HDAC2 (1 to 488 residues) expressed in Sf9 cells using Boc-Lys(acetyI)-AMC as substrate preincubated with enzyme for 1 hr followed by substrate addition and measured after 30 mins by fluorescence based analysis

Sequences of proteins named here, by UniProt entry; tags and fusion partners are left off.
UniProt Q92769, whole entry: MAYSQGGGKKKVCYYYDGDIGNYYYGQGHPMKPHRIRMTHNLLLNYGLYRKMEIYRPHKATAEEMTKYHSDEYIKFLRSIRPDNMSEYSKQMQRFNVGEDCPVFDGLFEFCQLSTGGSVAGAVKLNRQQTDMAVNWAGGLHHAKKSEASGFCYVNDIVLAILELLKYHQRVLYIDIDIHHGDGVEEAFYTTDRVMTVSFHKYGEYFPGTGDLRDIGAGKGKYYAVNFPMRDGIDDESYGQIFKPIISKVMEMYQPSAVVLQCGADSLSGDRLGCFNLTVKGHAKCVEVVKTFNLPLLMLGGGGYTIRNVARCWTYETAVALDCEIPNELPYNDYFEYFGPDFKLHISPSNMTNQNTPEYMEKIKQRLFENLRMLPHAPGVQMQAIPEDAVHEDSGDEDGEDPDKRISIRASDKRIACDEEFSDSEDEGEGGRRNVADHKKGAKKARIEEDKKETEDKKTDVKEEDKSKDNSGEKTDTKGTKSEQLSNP

IC50: 0.3 µM
Compound: O=C(CCCCCOc1no[n+]([O-])c1S(=O)(=O)c1ccccc1)NO

Source: ChEMBL document CHEMBL5346971, “Discovery of the First Irreversible HDAC6 Isoform Selective Inhibitor with Potent Anti-Multiple Myeloma Activity” (J Med Chem, 2023)
